Amino acid sequences for entries named in this document (tags omitted).
UniProt P34972, whole entry: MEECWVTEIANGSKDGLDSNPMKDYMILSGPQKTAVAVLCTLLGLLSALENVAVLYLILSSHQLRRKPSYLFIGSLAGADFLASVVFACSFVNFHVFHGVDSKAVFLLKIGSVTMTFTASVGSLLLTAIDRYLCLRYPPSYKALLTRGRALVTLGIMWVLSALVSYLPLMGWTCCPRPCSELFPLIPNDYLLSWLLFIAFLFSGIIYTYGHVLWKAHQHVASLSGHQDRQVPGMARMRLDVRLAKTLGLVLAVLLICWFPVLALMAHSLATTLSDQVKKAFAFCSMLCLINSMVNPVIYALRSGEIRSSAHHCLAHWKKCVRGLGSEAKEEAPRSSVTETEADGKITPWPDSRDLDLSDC

The assay deals with human CB2 receptor (hCB2) (Homo sapiens, UniProt P34972). The assay can be described thus: cell-based.
`CC1CCN(CC(C)(C)NC(=O)c2nc(-c3cc(Cl)c(F)cc3F)n3c2CN(C)CCC3)CC1` [Compound 880, 3-(5-chloro-2,4-difluorophenyl)-8-methyl-N-(2-methyl-1-(4-methylpiperidin-1-yl)propan-2-yl)-6,7,8,9-tetrahydro-5H-imidazo[1,5-a][1,4]diazepine-1-carboxamide] registered an EC50 above 10 µM.
As to `CNC(=O)[C@@H](NC(=O)c1nc(-c2cccc(F)c2OC)n2c1CN(C)CCC2)C(C)(C)C` [Compound 657, (S)-N-(3,3-dimethyl-1-(methylamino)-1-oxobutan-2-yl)-3-(3-fluoro-2-methoxyphenyl)-8-methyl-6,7,8,9-tetrahydro-5H-imidazo[1,5-a][1,4]diazepine-1-carboxamide], the half-maximal effective concentration (EC50) was above 10 µM.
`CN1CCn2c(-c3ccc(Cl)cc3F)nc(C(=O)N3CCC4(CCNC4=O)CC3)c2C1` [Compound 220, 8-(3-(4-chloro-2-fluorophenyl)-7-methyl-5,6,7,8-tetrahydroimidazo[1,5-a]pyrazine-1-carbonyl)-2,8-diazaspiro[4.5]decan-1-one] displayed an EC50 above 10 µM.
The compound `COC(=O)C1CN(C(=O)c2nc(-c3cc(Cl)c(F)cc3F)n3c2CN(C)CCC3)CCC1=O` (centres unmarked) [Compound 826, methyl 1-(3-(5-chloro-2,4-difluorophenyl)-8-methyl-6,7,8,9-tetrabydro-5H-imidazo[1,5-a][1,4]diazepine-1-carbonyl)-4-oxopiperidine-3-carboxylate] came in with an EC50 above 10 µM.
Turning to `CN1CCCn2c(-c3cc(Cl)c(F)cc3F)nc(C(=O)N3CC[C@H](O)C3)c2C1` [Compound 910, (S)-(3-(5-chloro-2,4-difluorophenyl)-8-methyl-6,7,8,9-tetrahydro-5H-imidazo[1,5-a][1,4]diazepin-1-yl)(3-hydroxypyrrolidin-1-yl)methanone], the half-maximal effective concentration (EC50) was above 10 µM.
Regarding `CNC(=O)[C@@H]1CCN(C(=O)c2nc(-c3cc(F)c(F)cc3F)n3c2CN(C)CCC3)C1` [Compound 758, (R)-N-methyl-1-(8-methyl-3-(2,4,5-trifluorophenyl)-6,7,8,9-tetrahydro-5H-imidazo[1,5-a][1,4]diazepine-1-carbonyl)pyrrolidine-3-carboxamide], the EC50 was above 10 µM.
`CN1CCCn2c(-c3cc(F)c(F)cc3F)nc(C(=O)N3CCC4(CCNC4=O)CC3)c2C1` [Compound 787, 8-(8-methyl-3-(2,4,5-trifluorophenyl)-6,7,8,9-tetrahydro-5H-imidazo[1,5-a][1,4]diazepine-1-carbonyl)-2,8-diazaspiro[4.5]decan-1-one] had an EC50 above 10 µM.
With `CNC(=O)[C@@H]1CCN(C(=O)c2nc(-c3cc(Cl)c(F)cc3F)n3c2CN(C)CCC3)C1` [Compound 808, (R)-1-(3-(5-chloro-2,4-difluorophenyl)-8-methyl-6,7,8,9-tetrahydro-5H-imidazo[1,5-a][1,4]diazepine-1-carbonyl)-N-methylpyrrolidine-3-carboxamide] the figure was above 10 µM; with `CN1CCCn2c(-c3cc(F)c(F)cc3F)nc(C(=O)N3CCC(O)C3)c2C1` (centres unmarked) [Compound 857, (3-hydroxypyrrolidin-1-yl)(8-methyl-3-(2,4,5-trifluorophenyl)-6,7,8,9-tetrahydro-5H-imidazo[1,5-a][1,4]diazepin-1-yl)methanone], above 10 µM.
As for `CN1CCCn2c(-c3cc(F)c(F)cc3F)nc(C(=O)N3CC(O)C3)c2C1` [Compound 856, (3-hydroxyazetidin-1-yl)(8-methyl-3-(2,4,5-trifluorophenyl)-6,7,8,9-tetrahydro-5H-imidazo[1,5-a][1,4]diazepin-1-yl)methanone], the half-maximal effective concentration (EC50) was above 10 µM.
With `CNC(=O)[C@@H](NC(=O)c1nc(-c2cc(F)c(F)cc2F)n2c1CN(c1ncccn1)CC2)C(C)(C)C` [Compound 688, (S)-N-(3,3-dimethyl-1-(methylamino)-1-oxobutan-2-yl)-7-(pyrimidin-2-yl)-3-(2,4,5-trifluorophenyl)-5,6,7,8-tetrahydroimidazo[1,5-a]pyrazine-1-carboxamide] the figure was 0.0001 to 0.01 µM; with `CN1CCCn2c(-c3ccccc3)nc(C(=O)Nc3cc(C(C)(C)C)no3)c2C1` [Compound 623, N-(3-tert-butylisoxazol-5-yl)-8-methyl-3-phenyl-6,7,8,9-tetrahydro-5H-imidazo[1,5-a][1,4]diazepine-1-carboxamide], above 10 µM.
For `CNC(=O)[C@@H](NC(=O)c1nc(-c2cc(F)c(F)cc2F)n2c1CN(CC1CC1)CCC2)C(C)(C)C` [Compound 713, (S)-8-(cyclopropylmethyl)-N-(3,3-dimethyl-1-(methylamino)-1-oxobutan-2-yl)-3-(2,4,5-trifluorophenyl)-6,7,8,9-tetrahydro-5H-imidazo[1,5-a][1,4]diazepine-1-carboxamide], the EC50 lay within 0.01 to 0.1 µM.
With `CNC(=O)[C@@H](NC(=O)c1nc(C2CCN(S(=O)(=O)C(C)C)CC2)n2c1CN(C)CCC2)C(C)(C)C` [Compound 775, (S)-N-(3,3-dimethyl-1-(methylamino)-1-oxobutan-2-yl)-3-(1-(isopropylsulfonyl)piperidin-4-yl)-8-methyl-6,7,8,9-tetrahydro-5H-imidazo[1,5-a][1,4]diazepine-1-carboxamide] the figure was above 10 µM; with `CNC(=O)[C@@H](NC(=O)c1nc(-c2ccc(C(F)(F)F)cc2C(F)(F)F)n2c1CN(C)CCC2)C(C)(C)C` [Compound 617, (S)-3-(2,4-bis(trifluoromethyl)phenyl)-N-(3,3-dimethyl-1-(methylamino)-1-oxobutan-2-yl)-8-methyl-6,7,8,9-tetrahydro-5H-imidazo[1,5-a][1,4]diazepine-1-carboxamide], above 10 µM.
As to `CNC(=O)[C@@H](NC(=O)c1nc(-c2cnn(-c3ccccc3)c2C)n2c1CN(C)CCC2)C(C)(C)C` [Compound 709, (S)-N-(3,3-dimethyl-1-(methylamino)-1-oxobutan-2-yl)-8-methyl-3-(5-methyl-1-phenyl-1H-pyrazol-4-yl)-6,7,8,9-tetrahydro-5H-imidazo[1,5-a][1,4]diazepine-1-carboxamide], the EC50 is above 10 µM.
Compound `CNC(=O)[C@@H](NC(=O)c1nc(-c2cc(F)c(F)cc2F)n2c1CN(C1CC1)CCC2)C(C)(C)C` [Compound 902, (S)-8-cyclopropyl-N-(3,3-dimethyl-1-(methylamino)-1-oxobutan-2-yl)-3-(2,4,5-trifluorophenyl)-6,7,8,9-tetrahydro-5H-imidazo[1,5-a][1,4]diazepine-1-carboxamide] displayed a concentration giving a half-maximal response (EC50) above 10 µM.
`Cc1nnc([C@H](NC(=O)c2nc(-c3cc(F)c(F)cc3F)n3c2CN(CC(C)C)CC3)C(C)(C)C)o1` [Compound 698, (R)-N-(2,2-dimethyl-1-(5-methyl-1,3,4-oxadiazol-2-yl)propyl)-7-isobutyl-3-(2,4,5-trifluorophenyl)-5,6,7,8-tetrahydroimidazo[1,5-a]pyrazine-1-carboxamide] came in with an EC50 of 0.01 to 0.1 µM.
In turn, `CNC(=O)[C@@H](NC(=O)c1nc(-c2cc(F)c(F)cc2F)n2c1CN(CC1CC1)CC2)C(C)(C)C` [Compound 689, (S)-7-(cyclopropylmethyl)-N-(3,3-dimethyl-1-(methylamino)-1-oxobutan-2-yl)-3-(2,4,5-trifluorophenyl)-5,6,7,8-tetrahydroimidazo[1,5-a]pyrazine-1-carboxamide] came in with an EC50 of 0.0001 to 0.01 µM.
`CNC(=O)[C@@H](NC(=O)c1nc(-c2cc(F)c(F)cc2F)n2c1CN(c1cncc(Cl)n1)CCC2)C(C)(C)C` [Compound 718, (S)-8-(6-chloropyrazin-2-yl)-N-(3,3-dimethyl-1-(methylamino)-1-oxobutan-2-yl)-3-(2,4,5-trifluorophenyl)-6,7,8,9-tetrahydro-5H-imidazo[1,5-a][1,4]diazepine-1-carboxamide] showed an EC50 above 10 µM.
With `CN1CCCn2c(-c3cc(Cl)ccc3F)nc(C(=O)N[C@H](CN)C(C)(C)C)c2C1` [Compound 768, (S)-N-(1-amino-3,3-dimethylbutan-2-yl)-3-(5-chloro-2-fluorophenyl)-8-methyl-6,7,8,9-tetrahydro-5H-imidazol[1,5-a][1,4]diazepine-1-carboxamide], the EC50 was above 10 µM.
With `CNC(=O)[C@@H](NC(=O)c1nc(-c2cc(F)c(F)cc2F)n2c1CN(c1cncc(Cl)n1)CC2)C(C)(C)C` [Compound 686, (S)-7-(6-chloropyrazin-2-yl)-N-(3,3-dimethyl-1-(methylamino)-1-oxobutan-2-yl)-3-(2,4,5-trifluorophenyl)-5,6,7,8-tetrahydroimidazo[1,5-a]pyrazine-1-carboxamide] the figure was 0.0001 to 0.01 µM; with `CN1CCCn2c(-c3cc(Cl)c(F)cc3F)nc(C(=O)N3CCC(F)(F)C3)c2C1` [Compound 824, (3-(5-chloro-2,4-difluorophenyl)-8-methyl-6,7,8,9-tetrahydro-5H-imidazo[1,5-a][1,4]diazepin-1-yl)(3,3-difluoropyrrolidin-1-yl)methanone], above 10 µM; with `CNC(=O)[C@@H](NC(=O)c1nc(-c2cc(F)c(F)cc2F)n2c1CN(Cc1ccccc1)CCC2)C(C)(C)C` [Compound 712, (S)-8-benzyl-N-(3,3-dimethyl-1-(methylamino)-1-oxobutan-2-yl)-3-(2,4,5-trifluorophenyl)-6,7,8,9-tetrahydro-5H-imidazo[1,5-a][1,4]diazepine-1-carboxamide], 0.0001 to 0.01 µM.
Take `CNC(=O)[C@@H](NC(=O)c1nc(-c2cc(F)c(F)cc2F)n2c1CN(c1cccc(Cl)n1)CC2)C(C)(C)C` [Compound 687, (S)-7-(6-chloropyridin-2-yl)-N-(3,3-dimethyl-1-(methylamino)-1-oxobutan-2-yl)-3-(2,4,5-trifluorophenyl)-5,6,7,8-tetrahydroimidazo[1,5-a]pyrazine-l-carboxamide]: the half-maximal effective concentration (EC50) lay within 0.01 to 0.1 µM.
As for `Cc1nnc([C@@H](NC(=O)c2nc(-c3cc(F)c(F)cc3F)n3c2CN(Cc2ccco2)CC3)C(C)(C)C)o1` [Compound 707, (S)-N-(2,2-dimethyl-1-(5-methyl-1,3,4-oxadiazol-2-yl)propyl)-7-(furan-2-ylmethyl)-3-(2,4,5-trifluorophenyl)-5,6,7,8-tetrahydroimidazo[1,5-a]pyrazine-1-carboxamide], the figure is above 10 µM.

What is called EC50 is the concentration needed to bring the measured effect to its halfway point. High values mean a need for much substance, low ones an effect from little substance.
